Source: patent US20150010917A1, “METHOD TO IDENTIFY LIGANDS FOR SIGMA-1 RECEPTORS” (LABORATORIOS DEL DR. ESTEVE S.A., priority 2012, published 2015)

Biological target: T1, σ1^spCFP/YFP construct expressed in HEK-293 cells (Homo sapiens, UniProt Q99720)
T1 construct: PTHR (PTH1R) signal peptide (N); expressed in transfected cells; host or cells: HEK-293 (stably transfected, G418 selected)
Test: Single-cell real-time intramolecular FRET (iFRET) of the σ1 receptor FRET sensor
Assay type: cell-based
Settings: 100 μM, single HEK-293 cell, FIG. 3
Method: In the single cell real time intramolecular-FRET approach both donor (i.e. CFP) and acceptor (i.e. YFP) are located in the same molecule, as designed for the σ1^CFP/YFP and the σ1^spCFP/YFP constructs (FIG. 1A). In brief, HEK cells permanently expressing the corresponding σ1 receptor FRET sensor were seeded in poly-D-Lysine coated coverslips and allow growing overnight. Then, the coverslips with transfected cells were mounted in an Attofluor holder and placed on an inverted Axio Observer microscope (Zeiss, Jena, Germany) equipped with a 63× oil immersion objective and a dual-emission photometry system (Till Photonics, Gräfelfing, Germany). The extracellular buffer was Hank's Balanced Salt Solution (HBSS), containing (in mM): 137 NaCl, 0.34 Na2HPO4, […], 0.44 KH2PO4, 0.5 MgCl2, 0.4 Mg2SO4, 1.26 CaCl2, 10 HEPES, 2 D-glucose and 1 ascorbic acid (pH 7.4 with NaOH).
A Polychrome V (Till Photonics) was used as the light source. The sample was illuminated with excitation light at 436±10 nm (beam splitter dichroic long-pass; DCLP 460 nm). Excitation time was 10 ms at 10 Hz, in order to limit photobleaching. Emission light intensities were determined at 535±15 and 480±20 nm (DCLP 505 nm). No corrections for spillover between channels or direct YFP excitation were made.
Single cells were selected for recording based on their σ1 expression as judged by its fluorescence. […]

For (+)-SKF-10,047, which “change in the FRET signal of the σ1^spCFP/YFP” value is on record?
Its value is “decrease”.
